Hit rate of the full screen: of about 1,400 compounds, about 25 (2%) were called active. Listed are the inconclusive results; actives and inactives stand elsewhere. The call rests on the fitted dose curve; in most records, active means well fitted inhibition curve with a large enough effect; inconclusive means small, poorly fitted or top-dose-only effect; inactive means flat fitted curve, though single readings scatter.
Assay: Nrf2 qHTS screen for inhibitors: A549 ARE-Fluc Cytotoxicity Counterscreen for Hit Validation
Settings: A549 ARE-Fluc cells
Text: Nrf2 is a transcription factor that maintains cellular redox homoestasis and protects cells from xenobiotics. Nrf2 binds to the antioxidant response element (ARE) to induce gene expression of a broad spectrum of genes that encode for antioxidants. […] Finding a small molecule that act as an inhibitor of Nrf2 function would represent a novel therapeutic target that could lead to improvement in survival of patients undergoing chemo- and/or radio- therapy.
In collaboration with the Biswal laboratory, a cell based, luminescence assay (BugLite) was developed to detect the Nrf2 activity using the A549 ARE_Fluc cells (AID 504648). This assay was coupled with a fluorescence based (CellTiter Fluor) cytotoxicity assay to identify and exclude toxic compounds. This coupled assay was used to evaluate selected compounds for hit validation. The data herein is the result of the CellTiter Fluor assay where decrease in fluorescence signal = cytotoxicity. Inactivity is the desired outcome for this assay.
NIH Chemical Genomics Center [NCGC]
NIH Molecular Libraries Probe Centers Network [MLPCN]
Assay Submitter (PI): Shyam Biswal, Johns Hopkins University
[1] Shibata T., et al., Genetic alteration of Keap1 confers constitutive Nrf2 activation and resistance to chemotherapy in gallbladder cancer. Gastroenterology, 2008.
[2] Sjoblom T., et al., The consensus coding sequences of human breast and colorectal cancers. Science, 2006.
Five uL of cell suspension was dispensed into 1536-well white TC-treated plate using the Kalypsys dispenser to achieve a density of 5000 cells/well in all columns except column 1. The plates were incubated at 37deg C at 5% CO2 for 2 hours before 23 nL of compounds were added with the Kalypsys pin tool equipped with a 1,536-pin array. […] The fluorescence signal was read using the PerkinElmer ViewLux plate reader (Ex = 405 nm /Em = 525 nm) for a 3 second exposure. […] A second ViewLux read (40 sec exposure) was performed to detect the luminescence signal. Cytotoxicity was assessed through the first fluorescent read while biochemical activity against Nrf2 was measured in the luminescent read. […]
For `CC1=CC2OC3CC4OC(=O)/C=C/C=CC(C(C)O)OCC(O)C(C)CC(=O)OCC2(CC1O)C4(C)C31CO1` (stereo not drawn), the Potency was inconclusive: 116 nM.
For `C[C@H]1[C@@H](OS(=O)(=O)O)C[C@@H]2C[C@H]([C@@H](O)c3cc(=O)[nH]c(=O)[nH]3)NC3=NC[C@H]1N32`, the Potency was inconclusive: 4110 nM.
For `CC1=CC2OC3CC4OC(=O)C=CC=CC(C(C)O)OCC(O)C5(C)OC5C(=O)OCC2(CC1O)C4(C)C31CO1` (stereo not drawn), the Potency was inconclusive: 1300 nM.
